Only a part is listed here, and it is no random draw. Only a part of the results of these assays is listed, not drawn at random. Active and inactive are the calls of the source. The calls are words filed in the database; no cut-off is given here.

The target of this assay is T1, DNA polymerase kappa (Homo sapiens) (UniProt Q9UBT6).
T1 sequence (whole entry): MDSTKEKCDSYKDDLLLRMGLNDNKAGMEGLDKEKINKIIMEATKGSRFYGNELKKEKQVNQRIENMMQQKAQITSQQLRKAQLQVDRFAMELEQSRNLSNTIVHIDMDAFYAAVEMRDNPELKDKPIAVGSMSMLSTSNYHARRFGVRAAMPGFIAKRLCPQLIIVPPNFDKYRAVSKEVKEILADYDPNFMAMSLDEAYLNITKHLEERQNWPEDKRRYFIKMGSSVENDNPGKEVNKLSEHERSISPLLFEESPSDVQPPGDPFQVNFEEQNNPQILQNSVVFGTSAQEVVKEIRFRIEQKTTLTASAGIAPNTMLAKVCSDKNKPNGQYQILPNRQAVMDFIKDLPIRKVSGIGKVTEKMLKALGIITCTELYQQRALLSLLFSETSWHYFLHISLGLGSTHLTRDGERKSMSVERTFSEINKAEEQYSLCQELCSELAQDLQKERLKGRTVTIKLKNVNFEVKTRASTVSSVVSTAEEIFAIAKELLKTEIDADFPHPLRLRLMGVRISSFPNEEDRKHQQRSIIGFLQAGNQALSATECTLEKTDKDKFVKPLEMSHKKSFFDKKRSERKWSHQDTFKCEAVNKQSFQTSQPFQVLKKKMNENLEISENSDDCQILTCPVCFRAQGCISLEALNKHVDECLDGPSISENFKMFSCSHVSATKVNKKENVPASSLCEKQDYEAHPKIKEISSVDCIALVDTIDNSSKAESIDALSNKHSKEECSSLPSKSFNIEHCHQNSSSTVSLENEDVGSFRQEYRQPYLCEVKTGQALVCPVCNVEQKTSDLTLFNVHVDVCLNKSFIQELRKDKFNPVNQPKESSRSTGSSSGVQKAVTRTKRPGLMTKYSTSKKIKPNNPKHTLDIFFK
Put plainly: qHTS for Inhibitors of Polymerase Kappa. [Related pubchem assays (depositor defined):AID588638]. The class given is functional.
`O=C(O)C(O)c1ccccc1` (configuration not stated): the Potency entry is “inactive”.

For the molecule `c1ccc(CNCCNCc2ccccc2)cc1`, the Potency result was “inactive”.

Values taken from ChEMBL document CHEMBL1201862, “PubChem BioAssay data set” (2004).
